Key:
[1] = target: T1, Alpha-1A adrenergic receptor (Rattus norvegicus, UniProt P43140); assay: Binding affinity against native Alpha-1A adrenergic receptor from rat hippocampus pretreated with chloroethylclonidine using radioligand ([3H]prazosin) binding assay; type: tissue-based
T1 sequence (P43140 whole entry): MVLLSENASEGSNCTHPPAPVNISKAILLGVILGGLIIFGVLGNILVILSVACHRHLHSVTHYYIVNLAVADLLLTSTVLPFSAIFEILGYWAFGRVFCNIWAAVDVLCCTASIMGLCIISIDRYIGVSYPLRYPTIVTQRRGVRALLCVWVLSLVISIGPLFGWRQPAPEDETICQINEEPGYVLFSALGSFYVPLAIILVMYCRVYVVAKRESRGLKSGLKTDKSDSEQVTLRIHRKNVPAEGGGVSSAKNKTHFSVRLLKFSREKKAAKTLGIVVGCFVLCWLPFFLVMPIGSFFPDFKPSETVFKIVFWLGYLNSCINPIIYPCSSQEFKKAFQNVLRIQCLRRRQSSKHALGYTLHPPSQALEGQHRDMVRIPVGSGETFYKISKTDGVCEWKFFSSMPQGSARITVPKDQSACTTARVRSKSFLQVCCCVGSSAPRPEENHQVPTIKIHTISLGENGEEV

Chains of the proteins cited; added tags and fusions are not shown.
UniProt P23944, whole entry: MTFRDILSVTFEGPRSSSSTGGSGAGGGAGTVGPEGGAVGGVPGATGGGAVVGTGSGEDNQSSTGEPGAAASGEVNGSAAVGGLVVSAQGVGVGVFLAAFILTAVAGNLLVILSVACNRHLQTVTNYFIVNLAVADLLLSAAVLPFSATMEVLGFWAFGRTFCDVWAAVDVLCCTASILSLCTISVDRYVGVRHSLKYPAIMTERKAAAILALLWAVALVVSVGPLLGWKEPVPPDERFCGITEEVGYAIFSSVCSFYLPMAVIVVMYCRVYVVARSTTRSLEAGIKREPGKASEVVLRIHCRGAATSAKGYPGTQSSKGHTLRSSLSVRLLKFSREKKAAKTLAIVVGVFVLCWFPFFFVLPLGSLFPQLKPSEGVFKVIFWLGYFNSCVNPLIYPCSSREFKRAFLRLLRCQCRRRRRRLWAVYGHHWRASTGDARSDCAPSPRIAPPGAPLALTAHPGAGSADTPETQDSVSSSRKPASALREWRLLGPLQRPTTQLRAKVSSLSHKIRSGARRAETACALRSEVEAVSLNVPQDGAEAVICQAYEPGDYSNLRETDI

[2] = target: Alpha-1D adrenergic receptor (Rattus norvegicus, UniProt P23944); assay: Compound was tested for binding affinity against cloned Alpha-1D adrenergic receptor from rat brain.

O=C(CCCN1CCC2(CC1)C(=O)NCN2c1ccccc1)c1ccc(F)cc1 [SPIPERONE]
Ki [1]: 38 nM
Ki [2]: 21.9 nM

Source: ChEMBL document CHEMBL1129400 (J Med Chem, 1996)
